Measured values from US7192924B2, “Corticotropin releasing factor 2 receptor agonists” (priority 2002, dated 2007).
Like-named read-outs stand apart in the source and are kept apart here.

Assays:
CRF1R = target: T1, CRF1R (Homo sapiens, UniProt P34998); assay: CRF1R agonist activity (EC50, Emax), called comparative CRF binding; format: cell-based
T1 sequence (P34998 24-415): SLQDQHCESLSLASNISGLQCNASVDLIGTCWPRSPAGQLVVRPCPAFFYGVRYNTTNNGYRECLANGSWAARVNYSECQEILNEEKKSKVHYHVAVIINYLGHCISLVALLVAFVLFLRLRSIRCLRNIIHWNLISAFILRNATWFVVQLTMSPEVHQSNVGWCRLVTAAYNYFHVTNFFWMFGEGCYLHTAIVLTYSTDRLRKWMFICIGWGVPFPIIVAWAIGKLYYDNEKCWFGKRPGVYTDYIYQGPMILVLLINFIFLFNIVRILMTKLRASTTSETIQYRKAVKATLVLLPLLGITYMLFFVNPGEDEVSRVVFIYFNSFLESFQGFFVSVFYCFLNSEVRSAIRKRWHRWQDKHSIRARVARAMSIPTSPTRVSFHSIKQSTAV
Method in brief: (§1)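 Cells expressing only CRF1R or only CRF2R (or recombinant receptor) are contacted with peptide or vehicle control. Receptor activation is read as cAMP induction, measured in cell lysates or via a cAMP-responsive-element reporter gene such as luciferase.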

CRF2R = target: T2, CRF2R (Homo sapiens, UniProt Q13324); assay: CRF2R agonist activity (EC50, Emax), called comparative CRF binding; format: cell-based
T2 sequence (Q13324 1-411): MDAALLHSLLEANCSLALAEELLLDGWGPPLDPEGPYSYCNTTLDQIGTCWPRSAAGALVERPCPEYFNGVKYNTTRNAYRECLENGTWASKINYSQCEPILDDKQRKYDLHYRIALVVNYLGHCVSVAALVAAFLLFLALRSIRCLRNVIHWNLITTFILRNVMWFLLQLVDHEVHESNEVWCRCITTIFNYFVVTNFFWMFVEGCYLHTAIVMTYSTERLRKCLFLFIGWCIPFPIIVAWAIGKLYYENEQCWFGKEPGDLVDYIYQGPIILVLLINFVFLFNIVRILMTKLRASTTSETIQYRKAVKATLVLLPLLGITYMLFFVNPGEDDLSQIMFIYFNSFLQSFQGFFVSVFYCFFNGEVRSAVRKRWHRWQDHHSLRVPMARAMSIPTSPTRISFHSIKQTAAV
Method in brief: as §1

Row | Structure (SMILES) | EC50 (CRF1R) | EC50 (CRF2R) | EC50 (CRF1R; read-out: CRF1R EC50) | EC50 (CRF2R; read-out: CRF2R EC50)
1 | CC[C@H](C)[C@H](NC(=O)[C@@H](NC(=O)[C@H](CC(=O)O)NC(=O)[C@H](CC(C)C)NC(=O)[C@H](CC(C)C)NC(=O)[C@H](CC(C)C)NC(=O)[C@H](C)NC(=O)[C@H](CC(N)=O)NC(=O)[C@H](CC(N)=O)NC(=O)[C@H](C)NC(=O)[C@H](C)NC(=O)[C@H](CCC(N)=O)NC(=O)[C@H](CCC(N)=O)NC(=O)[C@H](CCCCN)NC(=O)[C@H](CCC(=O)O)NC(=O)[C@H](CCCCN)NC(=O)[C@H](CCC(=O)O)NC(=O)[C@H](CCC(N)=O)NC(=O)[C@H](CCCCN)NC(=O)[C@H](CCC(=O)O)NC(=O)[C@@H](NC(=O)[C@H](CCC(=O)O)NC(=O)[C@@H](NC(=O)[C@H](CCSC)NC(=O)[C@H](CCCCN)NC(=O)[C@H](CCCNC(=N)N)NC(=O)[C@H](CC(C)C)NC(=O)[C@H](CC(C)C)NC(=O)[C@H](Cc1ccc(O)cc1)NC(=O)[C@H](CC(C)C)NC(=O)[C@@H]1CCCN1C(=O)[C@H](CC(C)C)NC(=O)[C@H](CC(=O)O)NC(=O)[C@@H](NC(=O)[C@H](CO)NC(=O)[C@@H](NC(=O)[C@@H]1CCCN1C(=O)[C@@H]1CCCN1C(=O)CNC(=O)[C@@H]1CCC(=O)N1)[C@@H](C)CC)[C@@H](C)CC)[C@@H](C)CC)[C@@H](C)CC)[C@@H](C)O)C(N)=O [compound 244] | 0.3 µM | 0.0088 µM |  | 
2 | CC[C@H](C)[C@H](NC(=O)[C@H](CCC(=O)O)NC(=O)[C@@H](NC(=O)[C@H](CCSC)NC(=O)[C@H](CCCCN)NC(=O)[C@H](CCCNC(=N)N)NC(=O)[C@H](CC(C)C)NC(=O)[C@H](CC(C)C)NC(=O)[C@H](CCC(N)=O)NC(=O)[C@H](CC(C)C)NC(=O)[C@@H]1CCCN1C(=O)[C@H](CC(C)C)NC(=O)[C@H](CC(=O)O)NC(=O)[C@@H](NC(=O)[C@H](CO)NC(=O)[C@@H](NC(=O)[C@@H]1CCCN1C(=O)[C@@H]1CCCN1C(=O)CNC(=O)[C@@H]1CCC(=O)N1)[C@@H](C)CC)[C@@H](C)CC)[C@@H](C)CC)C(=O)N[C@@H](CCC(=O)O)C(=O)N[C@@H](CCCCN)C(=O)N[C@@H](CCC(N)=O)C(=O)N[C@@H](CCC(=O)O)C(=O)N[C@@H](CCCCN)C(=O)N[C@@H](CCC(=O)O)C(=O)N[C@@H](CCCCN)C(=O)N[C@@H](CCC(N)=O)C(=O)N[C@@H](CCC(N)=O)C(=O)N[C@@H](C)C(=O)N[C@H](C(=O)N[C@H](C(=O)N[C@@H](CC(N)=O)C(=O)N[C@@H](C)C(=O)N[C@@H](CCCNC(=N)N)C(=O)N[C@@H](CC(C)C)C(=O)N[C@@H](CC(C)C)C(=O)N[C@@H](CC(=O)O)C(=O)N[C@H](C(=O)N[C@H](C(N)=O)C(C)C)[C@@H](C)O)[C@@H](C)O)[C@@H](C)O [compound 246] |  |  | ≥ 1 µM | 0.0388 µM
3 | CC[C@H](C)[C@H](NC(=O)[C@@H](NC(=O)[C@H](C)NC(=O)[C@H](CC(C)C)NC(=O)[C@H](CC(C)C)NC(=O)[C@H](CC(C)C)NC(=O)[C@H](CCCNC(=N)N)NC(=O)[C@H](CC(N)=O)NC(=O)[C@H](CC(N)=O)NC(=O)[C@H](C)NC(=O)[C@H](C)NC(=O)[C@H](CCC(N)=O)NC(=O)[C@H](CCC(N)=O)NC(=O)[C@H](CCCCN)NC(=O)[C@H](CCC(=O)O)NC(=O)[C@H](CCCCN)NC(=O)[C@H](CCC(=O)O)NC(=O)[C@H](CCC(N)=O)NC(=O)[C@H](CCCCN)NC(=O)[C@H](CCC(=O)O)NC(=O)[C@@H](NC(=O)[C@H](CCC(=O)O)NC(=O)[C@@H](NC(=O)[C@H](CCSC)NC(=O)[C@H](CCCCN)NC(=O)[C@H](CCCNC(=N)N)NC(=O)[C@H](CC(C)C)NC(=O)[C@H](CC(C)C)NC(=O)[C@H](CCC(N)=O)NC(=O)[C@H](Cc1ccccc1)NC(=O)[C@@H]1CCCN1C(=O)[C@H](CC(C)C)NC(=O)[C@H](CC(=O)O)NC(=O)[C@@H](NC(=O)[C@H](CO)NC(=O)[C@@H](NC(=O)[C@@H]1CCCN1C(=O)[C@@H]1CCCN1C(=O)CNC(=O)[C@@H]1CCC(=O)N1)[C@@H](C)CC)[C@@H](C)CC)[C@@H](C)CC)[C@@H](C)CC)[C@@H](C)O)C(N)=O [compound 250] | 0.138 µM | 0.0197 µM |  | 
4 | CC[C@H](C)[C@H](NC(=O)[C@@H](NC(=O)[C@H](CC(=O)O)NC(=O)[C@H](CC(C)C)NC(=O)[C@H](CC(C)C)NC(=O)[C@H](CC(C)C)NC(=O)[C@H](CCCNC(=N)N)NC(=O)[C@H](CC(N)=O)NC(=O)[C@H](CC(N)=O)NC(=O)[C@H](C)NC(=O)[C@H](C)NC(=O)[C@H](CCC(N)=O)NC(=O)[C@H](CCC(N)=O)NC(=O)[C@H](CCCCN)NC(=O)[C@H](CCC(=O)O)NC(=O)[C@H](CCCCN)NC(=O)[C@H](CCC(=O)O)NC(=O)[C@H](CCC(N)=O)NC(=O)[C@H](CCCCN)NC(=O)[C@H](CCC(=O)O)NC(=O)[C@@H](NC(=O)[C@H](CCC(=O)O)NC(=O)[C@@H](NC(=O)[C@H](CCSC)NC(=O)[C@H](CCCCN)NC(=O)[C@H](CCCNC(=N)N)NC(=O)[C@H](CC(C)C)NC(=O)[C@H](CC(C)C)NC(=O)CNC(=O)[C@@H](NC(=O)[C@@H]1CCCN1C(=O)[C@@H](NC(=O)[C@H](CC(=O)O)NC(=O)[C@@H](NC(=O)[C@H](CO)NC(=O)[C@@H](NC(=O)[C@@H]1CCCN1C(=O)[C@@H]1CCCN1C(=O)CNC(=O)[C@@H]1CCC(=O)N1)[C@@H](C)CC)[C@@H](C)CC)C(C)C)[C@@H](C)CC)[C@@H](C)CC)[C@@H](C)CC)[C@@H](C)O)C(N)=O [compound 254] | 0.708 µM | ≥ 0.1 µM |  | 
5 | CC[C@H](C)[C@H](NC(=O)[C@@H](NC(=O)[C@H](CC(=O)O)NC(=O)[C@H](CC(C)C)NC(=O)[C@H](CC(C)C)NC(=O)[C@H](CC(C)C)NC(=O)[C@H](CCCNC(=N)N)NC(=O)[C@H](CC(N)=O)NC(=O)[C@H](CC(N)=O)NC(=O)[C@H](C)NC(=O)[C@H](C)NC(=O)[C@H](CCC(N)=O)NC(=O)[C@H](CCC(N)=O)NC(=O)[C@H](CCCCN)NC(=O)[C@H](CCC(=O)O)NC(=O)[C@H](CCCCN)NC(=O)[C@H](CCC(=O)O)NC(=O)[C@H](CCC(N)=O)NC(=O)[C@H](CCCCN)NC(=O)[C@H](CCC(=O)O)NC(=O)[C@@H](NC(=O)[C@H](CCC(=O)O)NC(=O)[C@@H](NC(=O)[C@H](CC(C)C)NC(=O)[C@@H](NC(=O)[C@H](CCCNC(=N)N)NC(=O)[C@H](CC(C)C)NC(=O)[C@H](CC(C)C)NC(=O)[C@H](CCC(N)=O)NC(=O)[C@H](Cc1ccccc1)NC(=O)[C@@H]1CCCN1C(=O)[C@H](CC(C)C)NC(=O)[C@H](CC(=O)O)NC(=O)[C@@H](NC(=O)[C@H](CO)NC(=O)[C@@H](NC(=O)[C@@H]1CCCN1C(=O)[C@@H]1CCCN1C(=O)CNC(=O)[C@@H]1CCC(=O)N1)[C@@H](C)CC)[C@@H](C)CC)[C@@H](C)CC)[C@@H](C)CC)[C@@H](C)CC)[C@@H](C)O)C(N)=O [compound 255] | 0.0333 µM | 0.007 µM |  | 
6 | CC[C@H](C)[C@H](NC(=O)[C@H](CCCCN)NC(=O)[C@H](C)NC(=O)[C@H](CC(C)C)NC(=O)[C@H](CC(C)C)NC(=O)[C@H](CCCCN)NC(=O)[C@H](C)NC(=O)[C@H](CC(N)=O)NC(=O)[C@H](CC(N)=O)NC(=O)[C@H](C)NC(=O)[C@H](C)NC(=O)[C@H](CCC(N)=O)NC(=O)[C@H](CCC(N)=O)NC(=O)[C@H](CCCCN)NC(=O)[C@H](CCC(=O)O)NC(=O)[C@H](CCCCN)NC(=O)[C@H](CCC(=O)O)NC(=O)[C@H](CCC(N)=O)NC(=O)[C@H](CCCCN)NC(=O)[C@H](CCC(=O)O)NC(=O)[C@@H](NC(=O)[C@H](CCC(=O)O)NC(=O)[C@@H](NC(=O)[C@@H](NC(=O)[C@H](CCCCN)NC(=O)[C@H](CCCNC(=N)N)NC(=O)[C@H](CC(C)C)NC(=O)[C@H](CC(C)C)NC(=O)[C@H](CCC(N)=O)NC(=O)[C@H](Cc1ccccc1)NC(=O)[C@@H]1CCCN1C(=O)[C@H](CC(C)C)NC(=O)[C@H](CC(=O)O)NC(=O)[C@@H](NC(=O)[C@H](CO)NC(=O)[C@@H](NC(=O)[C@@H]1CCCN1C(=O)[C@@H]1CCCN1C(=O)CNC(=O)[C@@H]1CCC(=O)N1)[C@@H](C)CC)[C@@H](C)CC)C(C)C)[C@@H](C)CC)[C@@H](C)CC)C(N)=O [compound 274] |  |  | 0.508 µM | 0.0138 µM
7 | CC[C@H](C)[C@H](NC(=O)[C@H](Cc1c[nH]cn1)NC(=O)[C@H](C)NC(=O)[C@H](CC(C)C)NC(=O)[C@H](CC(C)C)NC(=O)[C@H](Cc1c[nH]cn1)NC(=O)[C@H](C)NC(=O)[C@H](CC(N)=O)NC(=O)[C@H](CC(N)=O)NC(=O)[C@H](C)NC(=O)[C@H](C)NC(=O)[C@H](CCC(N)=O)NC(=O)[C@H](CCC(N)=O)NC(=O)[C@H](CCCCN)NC(=O)[C@H](CCC(=O)O)NC(=O)[C@H](CCCCN)NC(=O)[C@H](CCC(=O)O)NC(=O)[C@H](CCC(N)=O)NC(=O)[C@H](CCCCN)NC(=O)[C@H](CCC(=O)O)NC(=O)[C@@H](NC(=O)[C@H](CCC(=O)O)NC(=O)[C@@H](NC(=O)[C@@H](NC(=O)[C@H](CCCCN)NC(=O)[C@H](CCCNC(=N)N)NC(=O)[C@H](CC(C)C)NC(=O)[C@H](CC(C)C)NC(=O)[C@H](CCC(N)=O)NC(=O)[C@H](Cc1ccccc1)NC(=O)[C@@H]1CCCN1C(=O)[C@H](CC(C)C)NC(=O)[C@H](CC(=O)O)NC(=O)[C@@H](NC(=O)[C@H](CO)NC(=O)[C@@H](NC(=O)[C@@H]1CCCN1C(=O)[C@@H]1CCCN1C(=O)CNC(=O)[C@@H]1CCC(=O)N1)[C@@H](C)CC)[C@@H](C)CC)C(C)C)[C@@H](C)CC)[C@@H](C)CC)C(N)=O [compound 277] | ≥ 1 µM | 0.0282 µM |  | 
